Structures are written as SMILES. Only a part is listed here, and it is no random draw. Calls of active or inactive are those of the source.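 Rule for the calls: active = more than half of replicates show inhibition above 20%; inconclusive = some but at most half of replicates above 20% inhibition; inactive = no replicate shows inhibition above 20%.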

Sequences of proteins named here, by UniProt entry; tags and fusion partners are left off.
UniProt P49840, whole entry: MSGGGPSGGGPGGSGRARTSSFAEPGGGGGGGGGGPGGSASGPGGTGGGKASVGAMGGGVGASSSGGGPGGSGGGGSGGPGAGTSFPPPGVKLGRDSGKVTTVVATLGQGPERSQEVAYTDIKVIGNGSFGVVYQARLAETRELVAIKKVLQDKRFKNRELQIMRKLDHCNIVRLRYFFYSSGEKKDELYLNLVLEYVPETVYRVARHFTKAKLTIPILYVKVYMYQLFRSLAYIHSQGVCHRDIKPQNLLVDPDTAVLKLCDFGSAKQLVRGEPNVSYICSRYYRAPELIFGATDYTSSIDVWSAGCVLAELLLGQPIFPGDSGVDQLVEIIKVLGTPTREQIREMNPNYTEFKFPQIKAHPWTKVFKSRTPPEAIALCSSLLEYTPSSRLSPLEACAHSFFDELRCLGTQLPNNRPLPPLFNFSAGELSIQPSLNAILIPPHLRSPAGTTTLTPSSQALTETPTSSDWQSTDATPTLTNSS

The test concerns the target Glycogen synthase kinase-3 alpha (Homo sapiens) (UniProt P49840). The test is described as follows: blockers of GSK3A enzyme activity – biochemical, luminescence, cell-free homogeneous, HTS, primary screen (AID 2650).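 Note: GST-tagged GSK-3 alpha with peptide substrate and 25 µM ATP; 0% = DMSO neutral wells and 100% = GW8510 positive control wells.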 As to conditions: GSK-3 alpha kinase, ADP-Glo luminescence, 60 min; at 10 µM; active compounds read high.
Turning to `COc1ccc(NC2CCN(CCc3ccccc3)CC2)c(OC)c1`, the inhibition was inactive: -0.246%.
Then `CCOC(=O)N1CCC(Nc2ccc(F)cc2)CC1`, with inactive: -1.13%; and `O=C(NCC1(N2CCCCC2)CCCCC1)c1ccc(F)cc1`, with inactive: 0.124%.
Regarding `CCOc1ccc(C)cc1CN(CCCl)CCCl`, the inhibition is inactive: 4.88%.
For the compound `Cc1ccc(OCC(C)C)c(CN(CCCl)CCCl)c1`, the inhibition was inactive: 1.45%.
The result for `CCOC(=O)N1CCC(Nc2cccc(C)c2)CC1` reads inactive: 0.789%; that for `COc1cc(C(=O)NCC2(N(C)C)CCCCC2)ccc1OC(F)F`, inactive: -2.29%; that for `CSc1ccccc1C(=O)NCC1(N2CCCCC2)CCCCC1`, inactive: -0.599%.
Consider `COc1ccc(C(=O)NCC2(N3CCCCC3)CCCCC2)c(OC)c1OC`, for which the inhibition was inactive: -0.438%.
In the case of `CC(C)(C)OC(=O)N1CCC(N(C(=O)c2ccccc2)c2ccc(F)cc2)CC1`, the inhibition is inactive: 0.246%.
Then `COc1ccc(C(=O)NCC2(N3CCCCC3)CCCCC2)cc1`, with inactive: -1.48%; and `O=C(NCC1(N2CCCCC2)CCCCC1)c1cccs1`, with inactive: -2.34%.
The result for `O=C(NCC1(N2CCCCC2)CCCCC1)c1ccc(=O)[nH]c1` reads inactive: -0.83%; that for `COc1ccc(Cl)cc1C(=O)NCC1(N2CCOCC2)CCCCC1`, inactive: 3.77%.
Then `N#CC1(Nc2ccccc2)CCN(Cc2ccccc2)CC1`, with inactive: -1.23%; and `O=C(NCC1(N2CCCCC2)CCCCC1)c1ccc(Cl)s1`, with inactive: 1.89%.
As for `O=C(OC1CN2CCC1CC2)C1c2ccccc2Oc2ccccc21` (stereo not drawn), the inhibition was inactive: -3.41%.
Then `Cc1cc(C)cc(N(C(=O)c2ccccc2)C2CCN(C(=O)OC(C)(C)C)CC2)c1`, with inactive: -0.514%; and `O=C(NCC1(N2CCCCC2)CCCCC1)c1ccc(Cl)nc1`, with inactive: 12.5%; and `O=C(NCC1(N2CCOCC2)CCCCC1)c1cc2ccccc2o1`, with inactive: -1.37%.
On to `O=C(NCC1(N2CCOCC2)CCCCC1)c1cc(F)c(F)cc1Cl`, for which the inhibition is inactive: -5.71%.
Then `COc1cc(OC)c(C(=O)NCC2(N(C)C)CCCCC2)cc1OC`, with inactive: -0.39%; and `CC(C)c1ccc(NC2CCN(C(=O)OC(C)(C)C)CC2)cc1`, with inactive: -3.63%; and `CN(C)c1cccc(C(=O)NCC2(N3CCCCC3)CCCCC2)c1`, with inactive: -0.609%.
Then `COc1ccc(CN(CCCl)CCCl)cc1Cl`, with inactive: 3.51%; and `CCCOc1ccc(C(=O)NCC2(N(C)C)CCCCC2)cc1OC`, with inactive: -2.79%; and `CN1CCC(Nc2cccc(F)c2)CC1`, with inactive: -5.49%.
In the case of `O=C(NCC1(N2CCCCC2)CCCCC1)c1cncc(Br)c1`, the inhibition was inactive: -0.986%.
